Assay results as given in paper PMC6777777 (PLoS ONE, 2019).

Amino acid sequences for entries named in this document (tags omitted). Residues count along the entry.
UniProt P02710, 25-461: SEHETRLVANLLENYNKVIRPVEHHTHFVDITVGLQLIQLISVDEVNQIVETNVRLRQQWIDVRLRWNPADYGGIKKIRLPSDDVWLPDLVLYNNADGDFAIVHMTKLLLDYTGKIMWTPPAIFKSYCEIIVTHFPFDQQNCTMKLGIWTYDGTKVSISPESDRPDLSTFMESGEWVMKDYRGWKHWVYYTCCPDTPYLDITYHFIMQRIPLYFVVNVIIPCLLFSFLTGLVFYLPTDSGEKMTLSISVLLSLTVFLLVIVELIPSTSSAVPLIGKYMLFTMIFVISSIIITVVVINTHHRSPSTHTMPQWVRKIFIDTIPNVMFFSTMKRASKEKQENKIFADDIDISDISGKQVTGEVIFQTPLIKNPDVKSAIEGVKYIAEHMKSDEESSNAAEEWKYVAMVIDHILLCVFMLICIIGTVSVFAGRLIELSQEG
UniProt P02712, 25-493: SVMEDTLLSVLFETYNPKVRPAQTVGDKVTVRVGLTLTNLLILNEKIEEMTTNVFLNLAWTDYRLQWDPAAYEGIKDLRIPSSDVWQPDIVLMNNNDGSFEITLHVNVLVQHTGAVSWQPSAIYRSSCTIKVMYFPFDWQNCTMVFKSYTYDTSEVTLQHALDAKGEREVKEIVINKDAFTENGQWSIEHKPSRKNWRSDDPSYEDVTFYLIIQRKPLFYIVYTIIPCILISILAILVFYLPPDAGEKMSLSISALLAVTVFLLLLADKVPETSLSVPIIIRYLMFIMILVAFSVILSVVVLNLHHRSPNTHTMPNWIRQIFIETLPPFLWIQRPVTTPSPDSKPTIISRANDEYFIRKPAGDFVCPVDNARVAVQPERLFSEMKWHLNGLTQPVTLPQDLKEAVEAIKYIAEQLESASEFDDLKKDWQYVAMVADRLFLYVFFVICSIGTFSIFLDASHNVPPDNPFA
UniProt P02714, 18-506: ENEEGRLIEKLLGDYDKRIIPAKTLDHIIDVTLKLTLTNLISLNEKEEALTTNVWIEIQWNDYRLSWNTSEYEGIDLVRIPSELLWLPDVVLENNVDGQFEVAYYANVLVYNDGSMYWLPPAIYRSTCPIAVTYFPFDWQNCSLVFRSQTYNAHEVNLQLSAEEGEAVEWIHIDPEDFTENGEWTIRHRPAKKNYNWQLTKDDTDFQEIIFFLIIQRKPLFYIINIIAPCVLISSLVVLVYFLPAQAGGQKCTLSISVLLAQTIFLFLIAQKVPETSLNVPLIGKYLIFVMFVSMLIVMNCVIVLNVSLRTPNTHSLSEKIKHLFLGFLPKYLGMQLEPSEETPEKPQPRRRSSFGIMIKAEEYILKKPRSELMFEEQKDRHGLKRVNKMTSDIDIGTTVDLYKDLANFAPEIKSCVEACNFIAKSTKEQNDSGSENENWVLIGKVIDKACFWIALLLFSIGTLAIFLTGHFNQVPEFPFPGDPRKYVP
UniProt P02718, 22-522: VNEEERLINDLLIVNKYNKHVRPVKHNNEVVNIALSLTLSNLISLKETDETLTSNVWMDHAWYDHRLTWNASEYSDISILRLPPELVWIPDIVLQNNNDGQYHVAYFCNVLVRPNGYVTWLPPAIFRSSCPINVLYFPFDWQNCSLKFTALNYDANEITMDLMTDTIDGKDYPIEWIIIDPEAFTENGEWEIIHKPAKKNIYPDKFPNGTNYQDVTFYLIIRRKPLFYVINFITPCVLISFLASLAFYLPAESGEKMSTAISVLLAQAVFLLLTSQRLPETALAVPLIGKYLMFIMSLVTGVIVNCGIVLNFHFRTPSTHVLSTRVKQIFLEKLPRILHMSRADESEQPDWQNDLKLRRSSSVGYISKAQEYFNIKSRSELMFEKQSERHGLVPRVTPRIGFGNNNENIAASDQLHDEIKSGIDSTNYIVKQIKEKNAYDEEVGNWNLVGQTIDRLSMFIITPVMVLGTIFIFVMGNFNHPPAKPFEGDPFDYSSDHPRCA

Biological target: T1, nicotinic acetylcholine receptor (nAChR) from Torpedo californica (Tetronarce californica, UniProt P02710+P02712+P02714+P02718)
T1 construct: flash-frozen Torpedo electric organ was purchased from Aquatic Research Consultants (San Pedro, CA); tissue Aquatic Research Consultants (San Pedro, CA); host or cells: Torpedo electric organ; Membranes were solubilized in cholate, reconstituted in asolectin liposomes and microinjected as protein into Xenopus oocytes
Assay: Two-electrode voltage clamp of oocytes injected with Torpedo nAChRs: inhibition of acetylcholine-stimulated current
Type: cell-based
Method: Sixteen hours after injection, the oocytes were clamped using a TEVC system. All ligands were dissolved in modified Barth’s solution at the indicated pH and were perfused into the chamber using a gravity-flow system. Thyroid hormones were initially dissolved in 0.1 M NaOH. […] Acetylcholine was applied to the bath surrounding the oocyte using a gravity-flow system at 10–13 mL/min. […] Each ligand perfusion lasted 60–70 seconds; after each perfusion, the bath solution was exchanged with ligand-free buffer until the current response signal had returned to baseline for at least 120 seconds before the next application of ligand(s). Data were recorded using iWorx LabScribe v1.959.

Q: pregnenolone sulfate [PS] was tested. Which IC50 (T3/PS pH 7, T3 pH 7.2, fit Top = 100, Hill Slope = 1) did it give?
A: The IC50 was 0.77 µM.

Q: And the IC50 (T3/PS pH 7.5, T3 pH 7.7, fit Top = 100, Hill Slope = 1, read-out: IC50)?
A: Its IC50 is 4.6 µM.

Q: And the IC50 (T3/PS pH 8, T3 pH 8.2, fit Top = 100, Hill Slope = 1, read-out: IC50)?
A: The IC50 was 3.5 µM.

Q: And the IC50 (T3/PS pH 8.5, T3 pH 8.7, fit Top = 100, Hill Slope = 1, read-out: IC50)?
A: The IC50 was 10.5 µM.

Q: And the IC50 (T3/PS pH 9, T3 pH 9.2, fit Top = 100, Hill Slope = 1, read-out: IC50)?
A: The IC50 was 2.4 µM.

Q: And the IC50 (co-applied with 30 μM acetylcholine, TEVC, read-out: IC50, inhibition of nAChR response to acetylcholine)?
A: The IC50 was 4.9 ± 3 µM.

Like-named read-outs stand apart in the source and are kept apart here.
